Test results as given in ChEMBL document CHEMBL1764976, “Small molecule inhibitors of retinoic acid 4-hydroxylase (CYP26): synthesis and biological evaluation of imidazole methyl 3-(4-(aryl-2-ylamino)phenyl)propanoates” (J Med Chem, 2011).

Biological target: T1, Cytochrome P450 26A1 (Homo sapiens, UniProt O43174)
T1 sequence (O43174 whole entry): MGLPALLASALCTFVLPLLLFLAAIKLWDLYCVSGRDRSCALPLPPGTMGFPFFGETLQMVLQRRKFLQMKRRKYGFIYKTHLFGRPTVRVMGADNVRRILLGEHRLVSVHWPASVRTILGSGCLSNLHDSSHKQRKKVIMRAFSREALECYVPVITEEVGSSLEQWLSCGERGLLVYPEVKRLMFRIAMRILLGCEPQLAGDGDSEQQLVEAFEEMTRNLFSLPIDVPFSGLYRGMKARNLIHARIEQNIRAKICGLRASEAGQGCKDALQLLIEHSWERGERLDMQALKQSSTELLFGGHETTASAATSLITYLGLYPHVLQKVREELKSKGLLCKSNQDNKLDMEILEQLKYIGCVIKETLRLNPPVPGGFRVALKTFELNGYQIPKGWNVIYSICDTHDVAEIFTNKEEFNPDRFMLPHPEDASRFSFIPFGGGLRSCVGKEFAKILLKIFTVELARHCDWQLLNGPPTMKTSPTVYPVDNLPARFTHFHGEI
Experiment: Inhibition of CYP26A1 in human MCF7 cell microsomes using [3H]ATRA after 1 hr by scintillation counting
Set-up: species or system Microsome
Procedure, shortened: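 Cell-free assay on MCF7 CYP26A1 microsomes with [11,12-3H]all-trans-retinoic acid as substrate. IC50 taken from the best fit of a four-point dose-response curve. Coefficient of variation across 8 repeat experiments for one compound was 15.5%.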

SMILES: Clc1cccc(C(c2ccc3[nH]cnc3c2)n2ccnc2)c1 (stereo unspecified) [LIAROZOLE]
- IC50: 540 nM
